Source: paper PMC7132610 (Saudi Pharmaceutical Journal : SPJ, 2020)
Counter-ions that a name gives are not always drawn.

The chains behind the UniProt entries cited, without tags or fusion partners.
UniProt P21397, whole entry: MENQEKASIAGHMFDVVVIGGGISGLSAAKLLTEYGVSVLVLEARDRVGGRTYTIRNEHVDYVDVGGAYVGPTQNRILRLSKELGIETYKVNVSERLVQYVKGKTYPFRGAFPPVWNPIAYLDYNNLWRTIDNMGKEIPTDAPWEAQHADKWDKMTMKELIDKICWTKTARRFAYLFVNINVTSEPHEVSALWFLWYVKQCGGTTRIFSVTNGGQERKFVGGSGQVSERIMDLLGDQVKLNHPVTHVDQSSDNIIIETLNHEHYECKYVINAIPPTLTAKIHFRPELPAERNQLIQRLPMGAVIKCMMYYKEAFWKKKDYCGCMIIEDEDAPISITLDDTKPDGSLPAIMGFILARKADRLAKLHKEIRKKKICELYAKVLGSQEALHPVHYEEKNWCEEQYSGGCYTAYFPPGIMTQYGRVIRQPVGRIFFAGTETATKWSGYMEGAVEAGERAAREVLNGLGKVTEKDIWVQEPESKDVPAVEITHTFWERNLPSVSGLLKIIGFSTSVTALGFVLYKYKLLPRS
UniProt P27338, whole entry: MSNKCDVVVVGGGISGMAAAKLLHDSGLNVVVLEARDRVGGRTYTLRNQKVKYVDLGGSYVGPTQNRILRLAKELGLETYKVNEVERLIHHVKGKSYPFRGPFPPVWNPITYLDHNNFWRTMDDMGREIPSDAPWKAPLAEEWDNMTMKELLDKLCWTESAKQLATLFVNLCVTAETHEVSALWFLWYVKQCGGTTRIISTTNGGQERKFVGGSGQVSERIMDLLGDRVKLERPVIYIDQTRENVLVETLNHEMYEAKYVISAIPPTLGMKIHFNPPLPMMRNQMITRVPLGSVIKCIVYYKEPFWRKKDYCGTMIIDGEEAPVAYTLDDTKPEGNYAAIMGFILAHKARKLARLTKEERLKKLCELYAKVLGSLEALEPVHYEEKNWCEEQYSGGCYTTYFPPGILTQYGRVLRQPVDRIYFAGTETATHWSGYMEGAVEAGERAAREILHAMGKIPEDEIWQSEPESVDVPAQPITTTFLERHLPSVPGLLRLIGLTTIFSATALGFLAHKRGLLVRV

How the values were obtained:
[1] = molecular target: recombinant human MAO-A (Homo sapiens, UniProt P21397); experiment: Kynuramine oxidative deamination assay, MAO-A inhibition; format: biochemical
[2] = molecular target: T1, recombinant human MAO-B (Homo sapiens, UniProt P27338); experiment: biochemical
[3] = molecular target: T1, recombinant human MAO-B; experiment: biochemical; remark: listed apart in the source

IC50 [1]: 221 ± 9 nM | IC50 [2]: 131 ± 23 nM | Ki [3]: 61.6 ± 6.2 nM
SMILES: NNCCc1ccccc1 [Phenelzine, phenelzine sulfate, reference compound]
